This test addresses T1, Carnitine O-palmitoyltransferase 1, liver isoform (Homo sapiens, UniProt P50416).
T1 sequence (P50416 whole entry): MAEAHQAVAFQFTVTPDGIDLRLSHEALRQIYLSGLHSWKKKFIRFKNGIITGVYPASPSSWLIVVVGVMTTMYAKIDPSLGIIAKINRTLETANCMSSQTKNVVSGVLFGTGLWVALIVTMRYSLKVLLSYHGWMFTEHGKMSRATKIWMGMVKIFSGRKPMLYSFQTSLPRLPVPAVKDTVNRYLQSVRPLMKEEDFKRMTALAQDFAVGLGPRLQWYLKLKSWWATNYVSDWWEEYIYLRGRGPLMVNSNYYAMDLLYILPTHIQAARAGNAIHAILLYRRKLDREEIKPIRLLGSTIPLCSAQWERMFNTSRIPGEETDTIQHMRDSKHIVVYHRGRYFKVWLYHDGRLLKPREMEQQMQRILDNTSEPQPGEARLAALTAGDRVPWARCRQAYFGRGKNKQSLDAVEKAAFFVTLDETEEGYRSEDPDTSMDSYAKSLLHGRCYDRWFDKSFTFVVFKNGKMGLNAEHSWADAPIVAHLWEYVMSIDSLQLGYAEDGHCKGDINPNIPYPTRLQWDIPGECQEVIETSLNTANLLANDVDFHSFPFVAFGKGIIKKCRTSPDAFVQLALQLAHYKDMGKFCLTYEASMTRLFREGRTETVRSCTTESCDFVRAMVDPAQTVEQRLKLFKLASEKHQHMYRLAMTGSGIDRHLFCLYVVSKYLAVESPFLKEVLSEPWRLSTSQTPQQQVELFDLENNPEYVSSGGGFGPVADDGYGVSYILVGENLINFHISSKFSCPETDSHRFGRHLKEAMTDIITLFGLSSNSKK
Nature of the test: Inhibition of CPT1 (unknown origin).

Structures are written as SMILES.

For orientation: IC50 means the midpoint of a concentration-inhibition curve. Read a high IC50 as a need for much substance. Turning to `CCCCc1oc2ccccc2c1C(=O)c1cc(I)c(OCCN(CC)CC)c(I)c1` [AMIODARONE], half-maximal inhibition (IC50) required 228 µM.
